# Measured values: patent US10889553B2, “Asymmetric triazole benzamide derivatives and the compositions and methods of treatment regarding the same” (NysnoBio Ireland DAC, priority 2017, dated 2021)
# The chains behind the UniProt entries cited, without tags or fusion partners.
# UniProt O60260, whole entry: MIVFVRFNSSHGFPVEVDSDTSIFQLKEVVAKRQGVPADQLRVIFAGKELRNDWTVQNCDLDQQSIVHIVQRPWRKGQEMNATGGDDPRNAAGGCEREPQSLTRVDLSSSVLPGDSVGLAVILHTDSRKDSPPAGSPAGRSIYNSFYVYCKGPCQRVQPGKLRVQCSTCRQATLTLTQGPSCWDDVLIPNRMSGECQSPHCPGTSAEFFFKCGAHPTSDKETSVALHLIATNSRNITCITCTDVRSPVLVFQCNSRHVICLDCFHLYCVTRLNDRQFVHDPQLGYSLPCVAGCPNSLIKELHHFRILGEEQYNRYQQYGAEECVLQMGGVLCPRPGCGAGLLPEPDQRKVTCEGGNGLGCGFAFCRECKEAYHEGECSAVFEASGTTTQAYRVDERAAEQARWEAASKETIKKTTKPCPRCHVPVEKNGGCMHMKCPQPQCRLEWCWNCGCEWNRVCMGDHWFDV
# Molecular target: Parkin ligase (Homo sapiens, UniProt O60260)
# Assay: Activity-Based Probe Assay using Ubiquitin vinyl sulfone probe (TR-FRET)
# Settings: read-out: Probe Assay EC50 (μM) [Example 2]; heat activated Parkin, HA-Ub-VS probe, activation EC50
smiles,measurement,value
C#Cc1ccc(C(=O)Nc2nc(NC(=O)c3ccc(N=[N+]=[N-])cc3)n(-c3ccccc3)n2)cc1,EC50,3 µM
